Experimental data: ChEMBL document CHEMBL1150535, “Acyclic NK-1 antagonists: 2-benzhydryl-2-aminoethyl ethers” (Bioorg Med Chem Lett, 1994)

Protein sequences, listed by entry. Tags and fused reporters are not part of them.
UniProt P25103, whole entry: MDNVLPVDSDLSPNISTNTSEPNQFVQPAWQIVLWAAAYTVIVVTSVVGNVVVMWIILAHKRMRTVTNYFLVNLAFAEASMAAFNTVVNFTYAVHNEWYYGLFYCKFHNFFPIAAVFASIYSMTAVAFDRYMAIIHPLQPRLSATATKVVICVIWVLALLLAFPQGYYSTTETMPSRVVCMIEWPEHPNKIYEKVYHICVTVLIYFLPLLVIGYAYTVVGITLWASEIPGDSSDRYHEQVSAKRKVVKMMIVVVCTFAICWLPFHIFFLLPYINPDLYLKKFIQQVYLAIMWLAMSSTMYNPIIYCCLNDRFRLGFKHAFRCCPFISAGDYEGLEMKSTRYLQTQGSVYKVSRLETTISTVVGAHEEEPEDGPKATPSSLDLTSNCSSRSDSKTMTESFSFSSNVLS

Biological target: Substance-P receptor (Homo sapiens, UniProt P25103)
Assay: Binding affinity towards human Tachykinin receptor 1 expressed in CHO cells by the displacement of [125 I] substance P
Type: cell-based

SMILES: NC(COCc1cc(C(F)(F)F)cc(C(F)(F)F)c1)C(c1ccccc1)c1ccccc1 (stereo unspecified)
- IC50: 10.7 nM
